Here are results for one substance from patent US8273713B2, “Methods of treating obesity using PYY[3-36]” (Amylin Pharmaceuticals, LLC, priority 2000, dated 2012).

What all share (assay type): in vivo
Assay [1] has as its system food intake. As to the kind of experiment: Long term food intake study in fa/fa rat. As to conditions: long term studies, data not presented.
Assay [2] in a line: Body weight in several obese rodent models. As to conditions: peripheral administration.
A further assay relates to gastric emptying. In words: Gastric emptying in HSD rats (3H-3-O-methyl-glucose gavage). The following applies: doses greater or equal to 10 μg/kg intraperitoneal; measured at 40 minutes. On the procedure:
Male HSD rats, 180-215 g, were housed with a 12:12 hour light:dark cycle and fasted for 20 hrs (overnight). At time=0 min, test peptide (PYY[3-36], PYY, Ac-PYY[22-36], NPY, NPY[3-36], or PP) or saline vehicle was injected (intraperitoneal) into conscious rats (n=6/group). At t=1 min, a solution of 1 mL sterile water containing 5 μCi of ^3H-3-O-methyl-glucose was gavaged by oropharyngeal tube to conscious rats. Blood samples (10 μl) were collected 40 min after gavage and assayed for counts per minute (CPM) in plasma. To eliminate pain during tail vein sampling, 2% Lidocaine (0.1 ml) was injected 3-4 cm from the end of the tail (Gedulin, Jodka et al. Gastroenterology 108: […], 1995). Effects of the test compound were expressed as percent change relative to control, which was calculated as -100*(1-(mean value test rats/mean value controls)). Relative activity was defined as significant if p<0.05 as determined by ANOVA. Where a significant difference existed, test means were compared to the control mean using Dunnett's test (Prism v2.01, GraphPad Software Inc., San Diego, Calif.).

Assay [3] has as its system food intake. As to the kind of experiment: Long term food intake study in ob/ob mouse. The following applies: long term studies, data not presented.
Assay [4] can be described thus: Caloric efficiency in fattened C57Bl/6 (DIO) mice, continuous infusion. On the procedure:
Male C57Bl/6 mice (4 weeks-old at start of study) were fed high fat (HF; 58% of dietary kcal as fat) or low fat (LF; 11% of dietary kcal as fat) chow. (30, 100, 300, or 1000 μg/kg/day) continuously for 4 weeks. Body weight and food intake were measured weekly (Surwit, Feinglos, et al Metabolism—Clinical and Experimental 44: 645-651, 1995).
Effects of the test compound are expressed as change in body weight (g) from the starting weight per kcal consumed. Kcal consumed was computed by multiplying the weight of food consumed (g) by the caloric density (kcal/g) specified by the manufacturer.
Activity was defined as the change of the mean±sd of n=at least 14 mice/group. Significance was defined as p<0.05 in an ANOVA or Dunnett's test.

Assay [5] has as its system food intake. In words: Food intake in ZDF rats during PYY[3-36] infusion. As to conditions: ZDF rat, peripheral administration; data not presented. On the procedure: (§1) Diabetic fatty Zucker rats (ZDF) (7 weeks of age) were housed in a 12:12 hour light:dark cycle room and given ad libitum access to high fat rodent chow and water. After 1 week of acclimatization, blood samples were drawn, and animals were sorted by starting HbA1c to provide a similar range in each treatment group.
(§2) Animals were implanted with osmotic pumps which delivered the doses indicated in FIG. 8 of PYY[3-36] or saline continuously to the periphery for 28 days. HbA1c was measured at weekly intervals. HbA1c levels (%) were plotted against time (Brown, Henke et al. Diabetes 48: 1415-24, 1999).

The subject of assay [6] is food intake. In words: Food intake in overnight-fasted NIH/SW mice. The following applies: 10, 100 and 500 μg/kg intraperitoneal; measured over 60 min; overnight-fasted female NIH/SW mice. On the procedure: Female NIH/Swiss mice (8-12 weeks old) were group housed with a 12:12 hour light:dark cycle with lights on at 0600. Water and a standard pelleted mouse chow diet were available ad libitum, except as noted. Animals were fasted and housed individually starting at approximately 1500 hrs, 1 day prior to experiment. The morning of the experiment (approx. 0630 hrs), all animals were weighed and divided into experimental groups so as to give the most similar weight distribution between groups. In a typical study, n=10 for the control group and at least 5 for each treatment group. At time=0 min, all animals were given an intraperitoneal injection of vehicle or compound in a volume of 5 ml/kg and immediately given a pre-weighed amount (10-15 g) of the standard chow. Increasing dosages of PYY[3-36], or PYY (0.1 μg/kg to 500 μg/kg and NPY (100 and 500 μg/kg), and single high doses of NPY[3-36] (100 μg/kg), N-terminal acetylated Ac-PYY[22-36] (200 μg/kg) and PP (500 μg/kg) were provided, as indicated on FIG. 1. Food was removed and weighed at 1 hr to determine the amount of food consumed (Morley, Flood et al. Am J Physiol 267: […]-[…], 1994). Food intake was calculated by subtracting the weight of the food remaining after one hour from the weight of the food provided initially at time=0. The effects of treatment on food intake are expressed as % change relative to control. […]

Assay [7] relates to exocrine pancreatic secretion (amylase). As to the kind of experiment: CCK-8-stimulated exocrine pancreatic secretion (amylase) in anesthetized rats. The method, then: (§3) Male Harlan Sprague Dawley rats were housed in a 12:12 hour light:dark cycle. All experiments were performed during the light cycle. Animals were fasted for approximately 20 hours before experimentation but were given free access to water until the start of the experiment.
Rats were anesthetized with 5% halothane, maintained with 2% halothane during surgery and with 1% halothane thereafter. Tracheotomy and cannulation of the right femoral artery were performed and body temperature was controlled with a thermoregulator that switched a heated operating table. The femoral arterial line, used for blood sampling, was perfused with heparinized saline (2 U/ml) and connected to a pressure transducer for blood pressure recording. Through a midline incision, two polyethylene cannulae were inserted into the common bile-pancreatic duct at a point about 0.5 cm above where the duct enters the pancreas. The first cannula was inserted up toward the liver to collect bile. The other end of this cannula was placed into the duodenum through a small incision in the duodenum. […]
Pancreatic juice was collected over 15 min intervals between t=−15 to +60 min. The volume of pancreatic juice (measured by weight) and activities of amylase were determined for each 15-minute aliquot (Taniguchi, Yazaki et al. Eur J Pharmacol 312: 227-33, 1996). […]

In a further assay the test system is HbA1c. As to the kind of experiment: Glycemic control (HbA1c) in obese diabetic (ZDF) rats, 28-day infusion. The method, then:
as §1, §2

Assay [8] can be described thus: Body weight gain in fattened C57Bl/6 (DIO) mice, continuous infusion. On the procedure:
Male C57Bl/6 mice (4 weeks-old at start of study) were fed high fat (HF; 58% of dietary kcal as fat) or low fat (LF; 11% of dietary kcal as fat) chow. (30, 100, 300, or 1000 μg/kg/day) continuously for 4 weeks. Body weight and food intake were measured weekly (Surwit, Feinglos et al. Metabolism—Clinical and Experimental 44: 645-651, 1995).
Effects of the test compound are expressed as the mean±sd of change in grams from starting weight of at least 14 mice per treatment group ((p<0.05 ANOVA, Dunnett's test (Prism v2.01, GraphPad Software Inc., San Diego, Calif.).

In the next assay the test system is gallbladder emptying. As to the kind of experiment: Gallbladder emptying in mice (gallbladder weight). On the procedure:
Mice were housed in a 12:12 hour light:dark cycle room with free access to water and mouse chow until the start of the experiment. At t=0, mice were given a subcutaneous injection of 1, 10, 100, or 1000 μg/kg PYY[3-36], 1 or 10 μg/kg CCK-8, both or saline (treatment and n/group as indicated in FIG. 4). Thirty minutes later, animals were anesthetized, and their intact gallbladders removed and weighed.
Data are expressed as organ weight in mg. Activity was defined as change from the mean of the control group. Statistical significance was defined as p<0.05 by ANOVA and/or Dunnett's test.

A further assay deals with gastric acid secretion. As to the kind of experiment: Pentagastrin-stimulated gastric acid secretion in rats with gastric fistulae. The method, then:
as §3
Rats (age 11-16 weeks, body mass 291-365 g) were surgically fitted with gastric fistulae (Kato, Martinez et al. Peptides 16: 1257-1262, 1995). Overnight fasted rats were weighed and their gastric fistulae were uncapped and attached to flexible Tygon tubing (⅜× 1/16) into which was fitted a piece of PE205 tubing that would extend up into the stomach. Saline was injected through the narrower PE205 tubing and the effluent collected from the Tygon tubing. To ensure proper flow through the fistulae and an empty stomach, the stomach was flushed several times with ˜5 mL of room temperature saline solution until flow was easy and the effluent was clean. Gastric acid secretion was measured at 10 min intervals by injecting 5 mL of saline followed by 3 mL of air and collecting the effluent. […]
After a baseline sample was collected, and the recovered volume recorded, the animal was given a subcutaneous injection of 125 μg/kg pentagastrin to stimulate gastric secretion. […] Data are expressed as μmol of acid secreted per 10 minute sampling interval (mean±SEM n=4/group).

Setting [9] is: 1000 μg/kg/day, all time points.
The mark [10] stands for this setting: continuous peripheral infusion 30-1000 μg/kg/day, 4 weeks, DIO mice.

For PYY[3-36], the “effect on food intake” value is on record as “reduced food intake” in the assay with food intake [1], “reduced food intake” in the assay on food intake [3], “reduced” in the assay with food intake [5] and “approximately equal efficacy” with food intake [6]. In assay [2], the “effect on body weight” value is listed as “dose-dependent decrease in body weight and/or rate of weight gain”. Besides, in the assay on gastric emptying, the “effect on gastric emptying” value was “significantly and dose-dependently reduced gastric emptying”. Besides, the “significance of effect on caloric efficiency” value in [4] (300 μg/kg/day, some time points) was “significant”; in assay [4] (setting [9]) it was “significant”. Besides, the “effect on caloric efficiency (body weight gained/kcal consumed)” value in [4] (setting [10]) is given as “dose-related decrease in caloric efficiency”. Besides, the “effect on CCK-8-stimulated pancreatic secretion (amylase activity in pancreatic juice)” value in assay [7] (30 μg/kg subcutaneous) is “blocked CCK-8-stimulated pancreatic secretion”. Moreover, the “effect on basal amylase activity” value in assay [7] (300 μg/kg, in the absence of CCK-8, versus saline-injected controls) is listed as “no effect on basal amylase activity”. The “significance of improvement in glycemic control” value in the assay with HbA1c (all doses, at 28 days) was “significant”. Also, in the assay with HbA1c (continuous peripheral infusion, 28 days, ZDF rats), the “effect on long term blood glucose control (HbA1c)” value is listed as “dose-dependent improvement in long term blood glucose control”. Moreover, the “significance of effect on body weight gain” value in assay [8] (300 μg/kg/day, first 3 weeks) was “significant”; in assay [8] (setting [9]), “significant”. Besides, the “effect on body weight gain” value in assay [8] (setting [10]) is reported as “dose-related decrease in body weight gain”. Also, the “ED50 for inhibition of gallbladder emptying” value in the assay with gallbladder emptying (acute peripheral injection, mice) was “≈ 31 μg/kg”. The “reversal of inhibition of gallbladder emptying by CCK-8” value with gallbladder emptying (co-administered CCK-8, even at the highest doses of PYY[3-36] tested) is recorded as “could be overridden by CCK-8”. Also, in the assay with gallbladder emptying (doses greater or equal to 10 μg/kg, acute peripheral injection, 30 min), the “effect on gallbladder emptying” value is reported as “prevented gallbladder emptying”. Besides, the “effect on pentagastrin-stimulated gastric acid secretion” value in the assay with gastric acid secretion (100 μg/kg, acute peripheral (intraperitoneal) injection) is listed as “inhibited pentagastrin-stimulated gastric acid secretion”. The “ED50 for inhibition of pentagastrin-stimulated gastric acid secretion” value in the assay on gastric acid secretion (acute peripheral injection, rats) is listed as “≈ 20 μg/kg”.
